Earlier results on one substance are cited in patent publication US20070265194A1, “Agents for the treatment of viral infections” (priority 2000, published 2007).

The data set has as its system mouse thymus cell lines. The settings on record: normal cell growth and metabolism; cited from earlier work.

For “4-hydroxy-5-iodo-3-nitrophenylacetyl-L-leucinyl-L-leucinyl-L-leucine vinyl sulfone”, the “concentration tolerated in continuous presence” value was 10 µM.
